# Laboratory results from patent US20240307434A1, “USE OF LUTETIUM SALT COMPOUNDS FOR ANTIVIRAL EFFECT” (priority 2022, published 2024).
# Test system: HaCaT (immortalized human keratinocyte cell)
# Conditions: suspended with PVA, glucopan
substance,measurement,value
lutetium Borate [LuBO3],toxic effects on cells,does not show toxic effects on cells
